In patent US6960559B1, “Neurite growth regulatory factors” (University of Zurich, priority 1988, dated 2005):

System: C6 glioblastoma cells
Assay type: cell-based, rat
Settings: 2 h
Method: Rat C6 glioblastoma cells (Benda et al., 1968, Science 161:370-371) were cultured in Dulbecco's modified Eagle's medium (DMEM) supplemented with 10% fetal calf serum (FCS), usually to maximally 70-80% confluency (Paganetti et al., 1988, J. Cell Biol. 107:2281-2291). All cell culture media were routinely supplemented with penicillin and streptomycin. Cells were harvested by a short trypsin treatment (0.1% in Ca^2+/Mg^2+-free [CMF] PBS/EDTA solution for 90 seconds) followed by addition of DMEM/10% FCS and centrifugation (600×g, 6 min). The cell pellet was rinsed with 5 ml DMEM/10% FCS and centrifuged. For cell spreading assays, cells were resuspended at 10^6/ml in defined serum-free medium (MEMα) supplemented with 0.2 μg/ml insulin, 0.5 μg/ml transferrin and 0.12 μg/ml bovine serum albumin (BSA). Protease blockers or peptides were added directly to the cell suspension from 10×solutions 10 min before plating.
Spinal cord myelin from young adult Lewis rats was purified on a discontinuous sucrose gradient (Colman et al., 1982, J. Cell Biol. 95:598-608; Schwab and Caroni, 1988, J. Neurosci. 8:2381-2393) and stored in 100 mM sucrose, 25 mM TRIS/HCl pH 7.4 at −80° C. up to 6 months. The myelin suspension ([…]) was incubated for 30 min on poly-D-lysine-coated wells (PLYS-wells). […] Experiments were scored as described (Paganetti et al., 1988, J. Cell Biol. 107:2281-2291).

Q: C[C@H](N)C(=O)N[C@@H](Cc1ccccc1)C(=O)N[C@@H](Cc1ccc(O)cc1)C(N)=O [AFY-NH2] was tested. Which IC50 did it give?
A: 1000 µM
